The values that follow are results of earlier work, collected in publication PMC8788626 (Lung cancer (Amsterdam, Netherlands), 2017).

For the data set, the system named is EGFR-mutant lung cancer. The settings on record: first-line therapy, standard daily dosing, ARCHER 1050; cited from earlier work.

Take `COc1cc2ncnc(Nc3ccc(F)c(Cl)c3)c2cc1OCCCN1CCOCC1` [gefitinib]: the median progression-free survival is 9.2 months.
